Earlier results in patent US20260210975A1, “DIAGNOSIS AND TREATMENT OF LONG-COVID” (priority 2022, published 2026).

Chains of the proteins cited; added tags and fusions are not shown. Lines headed by an entry give the natural chain unless they say otherwise; changes in a name come on top.
UniProt Q12809: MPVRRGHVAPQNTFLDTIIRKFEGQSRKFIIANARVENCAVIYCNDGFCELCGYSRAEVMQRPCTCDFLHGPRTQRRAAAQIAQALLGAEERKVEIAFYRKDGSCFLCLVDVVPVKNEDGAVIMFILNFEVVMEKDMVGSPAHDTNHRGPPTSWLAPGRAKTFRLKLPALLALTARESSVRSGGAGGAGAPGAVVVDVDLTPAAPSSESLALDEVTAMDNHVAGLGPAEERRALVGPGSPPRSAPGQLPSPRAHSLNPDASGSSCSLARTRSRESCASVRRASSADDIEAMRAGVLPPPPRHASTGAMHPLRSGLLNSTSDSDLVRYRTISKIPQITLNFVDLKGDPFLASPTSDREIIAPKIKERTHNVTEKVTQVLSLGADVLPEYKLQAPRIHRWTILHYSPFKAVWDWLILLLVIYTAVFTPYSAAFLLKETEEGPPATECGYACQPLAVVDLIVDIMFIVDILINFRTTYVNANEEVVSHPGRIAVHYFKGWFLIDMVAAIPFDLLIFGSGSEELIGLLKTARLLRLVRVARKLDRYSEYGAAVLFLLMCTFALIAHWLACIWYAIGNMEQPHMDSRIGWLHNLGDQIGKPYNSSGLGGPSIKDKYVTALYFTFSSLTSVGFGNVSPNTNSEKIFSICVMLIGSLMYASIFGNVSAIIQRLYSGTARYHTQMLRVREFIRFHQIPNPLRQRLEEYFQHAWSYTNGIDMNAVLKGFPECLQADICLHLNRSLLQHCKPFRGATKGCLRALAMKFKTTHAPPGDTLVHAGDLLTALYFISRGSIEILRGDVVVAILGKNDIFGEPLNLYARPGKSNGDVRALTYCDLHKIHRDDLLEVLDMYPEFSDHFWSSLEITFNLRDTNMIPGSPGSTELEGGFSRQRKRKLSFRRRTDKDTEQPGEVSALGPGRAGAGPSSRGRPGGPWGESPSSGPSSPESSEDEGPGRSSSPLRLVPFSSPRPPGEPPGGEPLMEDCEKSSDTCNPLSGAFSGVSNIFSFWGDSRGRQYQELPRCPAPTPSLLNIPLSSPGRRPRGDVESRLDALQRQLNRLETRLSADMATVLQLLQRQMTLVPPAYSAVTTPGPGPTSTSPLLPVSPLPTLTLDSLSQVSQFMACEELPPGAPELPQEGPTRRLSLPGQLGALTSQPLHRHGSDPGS

Biological target: KCNH2 (Homo sapiens, UniProt Q12809)

## O=C1Cc2cc(CCN3CCN(c4nsc5ccccc45)CC3)c(Cl)cc2N1 [ziprasidone]
  IC50: ~169 nM
